Assay results taken from ChEMBL document CHEMBL2311454, “Discovery and evaluation of novel inhibitors of mycobacterium protein tyrosine phosphatase B from the 6-Hydroxy-benzofuran-5-carboxylic acid scaffold” (J Med Chem, 2013).

Chains of the proteins cited; added tags and fusions are not shown. Lines headed by an entry give the natural chain unless they say otherwise; changes in a name come on top.
UniProt P29350: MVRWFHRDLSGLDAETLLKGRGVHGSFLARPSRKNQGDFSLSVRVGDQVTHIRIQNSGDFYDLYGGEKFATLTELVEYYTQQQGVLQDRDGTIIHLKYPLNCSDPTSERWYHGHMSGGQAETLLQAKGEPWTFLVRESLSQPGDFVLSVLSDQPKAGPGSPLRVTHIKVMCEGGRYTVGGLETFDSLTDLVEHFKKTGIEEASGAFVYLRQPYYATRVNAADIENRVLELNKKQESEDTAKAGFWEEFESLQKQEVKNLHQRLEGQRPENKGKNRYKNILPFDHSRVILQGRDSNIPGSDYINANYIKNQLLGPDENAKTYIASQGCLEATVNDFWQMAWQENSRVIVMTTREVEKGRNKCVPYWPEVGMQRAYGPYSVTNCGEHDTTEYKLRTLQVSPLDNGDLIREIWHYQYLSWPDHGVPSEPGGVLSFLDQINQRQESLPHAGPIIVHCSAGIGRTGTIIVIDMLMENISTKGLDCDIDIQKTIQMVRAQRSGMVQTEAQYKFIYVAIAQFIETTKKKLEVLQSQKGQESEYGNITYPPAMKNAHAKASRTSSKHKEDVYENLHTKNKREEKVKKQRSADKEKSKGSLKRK

Experiments:
[1] = biological target: Tyrosine-protein phosphatase non-receptor type 6 (Homo sapiens, UniProt P29350); test: Inhibition of SHP1 (unknown origin) expressed in Escherichia coli using pNPP substrate after 5 mins by spectrophotometric analysis
[2] = biological target: T1, Tyrosine-protein phosphatase non-receptor type 1 (Homo sapiens, UniProt P18031); test: Inhibition of PTP1B (unknown origin) expressed in Escherichia coli using pNPP substrate after 5 mins by spectrophotometric analysis
T1 sequence (P18031 whole entry): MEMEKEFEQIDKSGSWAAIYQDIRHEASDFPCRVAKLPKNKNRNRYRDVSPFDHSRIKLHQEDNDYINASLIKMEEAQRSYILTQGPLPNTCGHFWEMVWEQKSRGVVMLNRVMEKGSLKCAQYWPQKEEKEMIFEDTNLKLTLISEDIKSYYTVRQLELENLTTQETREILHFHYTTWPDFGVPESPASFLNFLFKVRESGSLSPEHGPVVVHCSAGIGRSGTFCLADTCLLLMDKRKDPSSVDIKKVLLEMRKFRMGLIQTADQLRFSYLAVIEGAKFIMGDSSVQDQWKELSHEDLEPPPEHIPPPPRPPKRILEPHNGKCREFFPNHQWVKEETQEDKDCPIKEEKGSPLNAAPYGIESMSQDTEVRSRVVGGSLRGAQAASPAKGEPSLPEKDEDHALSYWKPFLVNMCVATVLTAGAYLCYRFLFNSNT

[3] = Inhibition of Mycobacterium tuberculosis PTPB expressed in Escherichia coli using pNPP substrate after 5 mins by spectrophotometric analysis
[4] = biological target: T2, Receptor-type tyrosine-protein phosphatase C (Homo sapiens, UniProt P08575); test: Inhibition of CD45 (unknown origin) expressed in Escherichia coli using pNPP substrate after 5 mins by spectrophotometric analysis
T2 sequence (P08575 whole entry): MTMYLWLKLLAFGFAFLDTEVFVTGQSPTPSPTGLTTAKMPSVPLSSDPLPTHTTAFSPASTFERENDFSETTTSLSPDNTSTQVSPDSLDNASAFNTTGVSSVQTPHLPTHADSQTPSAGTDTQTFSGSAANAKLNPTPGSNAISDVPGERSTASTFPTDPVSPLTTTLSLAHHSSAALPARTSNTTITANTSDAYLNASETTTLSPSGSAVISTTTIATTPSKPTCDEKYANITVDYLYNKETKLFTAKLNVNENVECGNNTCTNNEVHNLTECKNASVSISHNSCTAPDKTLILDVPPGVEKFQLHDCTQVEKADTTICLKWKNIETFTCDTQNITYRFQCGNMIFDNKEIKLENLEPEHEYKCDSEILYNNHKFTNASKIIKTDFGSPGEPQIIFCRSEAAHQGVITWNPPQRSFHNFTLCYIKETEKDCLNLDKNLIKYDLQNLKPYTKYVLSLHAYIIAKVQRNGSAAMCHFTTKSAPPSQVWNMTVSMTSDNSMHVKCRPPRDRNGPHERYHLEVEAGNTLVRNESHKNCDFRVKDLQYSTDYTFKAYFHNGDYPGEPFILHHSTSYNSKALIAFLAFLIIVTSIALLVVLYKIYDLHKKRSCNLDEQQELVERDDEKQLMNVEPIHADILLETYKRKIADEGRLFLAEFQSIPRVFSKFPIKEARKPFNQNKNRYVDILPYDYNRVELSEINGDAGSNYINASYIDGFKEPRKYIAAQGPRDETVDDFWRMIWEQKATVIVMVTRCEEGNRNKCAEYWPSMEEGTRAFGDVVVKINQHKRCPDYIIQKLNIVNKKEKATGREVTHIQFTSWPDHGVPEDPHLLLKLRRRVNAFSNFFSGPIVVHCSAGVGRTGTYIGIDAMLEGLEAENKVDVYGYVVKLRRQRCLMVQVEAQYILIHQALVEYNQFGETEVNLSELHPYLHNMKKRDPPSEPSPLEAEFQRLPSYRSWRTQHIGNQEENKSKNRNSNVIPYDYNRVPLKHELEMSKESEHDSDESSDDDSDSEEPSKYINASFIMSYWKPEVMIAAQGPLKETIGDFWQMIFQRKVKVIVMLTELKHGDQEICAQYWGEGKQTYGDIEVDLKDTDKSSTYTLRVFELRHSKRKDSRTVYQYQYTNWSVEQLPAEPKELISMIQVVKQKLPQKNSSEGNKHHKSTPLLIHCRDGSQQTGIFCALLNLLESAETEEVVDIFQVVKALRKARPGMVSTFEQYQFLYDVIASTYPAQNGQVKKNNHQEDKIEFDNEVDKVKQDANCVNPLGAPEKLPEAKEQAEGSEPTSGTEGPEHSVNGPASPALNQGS

[5] = biological target: T3, Tyrosine-protein phosphatase non-receptor type 9 (Homo sapiens, UniProt P43378); test: Inhibition of PTPMEG2 (unknown origin) expressed in Escherichia coli using pNPP substrate after 5 mins by spectrophotometric analysis
T3 sequence (P43378 whole entry): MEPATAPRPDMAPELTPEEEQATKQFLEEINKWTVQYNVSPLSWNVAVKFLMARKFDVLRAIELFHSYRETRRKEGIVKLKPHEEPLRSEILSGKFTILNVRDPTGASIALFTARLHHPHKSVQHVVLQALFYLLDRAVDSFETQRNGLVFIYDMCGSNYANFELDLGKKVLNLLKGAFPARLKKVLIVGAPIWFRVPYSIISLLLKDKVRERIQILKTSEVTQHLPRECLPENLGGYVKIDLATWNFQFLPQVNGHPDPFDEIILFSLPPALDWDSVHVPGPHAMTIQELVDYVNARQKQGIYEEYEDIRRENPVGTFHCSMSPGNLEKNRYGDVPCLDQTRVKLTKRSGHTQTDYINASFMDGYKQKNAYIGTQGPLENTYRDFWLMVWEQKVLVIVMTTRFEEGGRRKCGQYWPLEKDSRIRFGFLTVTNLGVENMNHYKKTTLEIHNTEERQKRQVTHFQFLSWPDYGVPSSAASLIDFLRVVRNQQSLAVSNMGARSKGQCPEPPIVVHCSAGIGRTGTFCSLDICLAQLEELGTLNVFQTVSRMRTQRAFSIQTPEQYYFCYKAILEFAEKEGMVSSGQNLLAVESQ

| Structure (SMILES) | IC50 [1] | IC50 [2] | IC50 [3] | IC50 [4] | IC50 [5] |
| --- | --- | --- | --- | --- | --- |
| O=C(O)c1cc2c(/C=C\c3cc(F)cc(F)c3)c(-c3ccccc3)oc2cc1O | 5.7 µM |  |  |  |  |
| O=C(O)c1cc2c(/C=C\c3ccc(OC(F)(F)F)cc3)c(-c3ccccc3)oc2cc1O |  | 12 µM | 1.2 µM | 11.6 µM | 11.4 µM |
